According to PubChem BioAssay AID2751 (The Scripps Research Institute Molecular Screening Center, 2010):
Only a part is listed here, and it is no random draw. Calls of active or inactive are those of the source. No stated cut-off is given here; in the data, active means inhibition above about 43%; inactive means the rest.

Amino acid sequences for entries named in this document (tags omitted).
UniProt Q4J6C6, whole entry: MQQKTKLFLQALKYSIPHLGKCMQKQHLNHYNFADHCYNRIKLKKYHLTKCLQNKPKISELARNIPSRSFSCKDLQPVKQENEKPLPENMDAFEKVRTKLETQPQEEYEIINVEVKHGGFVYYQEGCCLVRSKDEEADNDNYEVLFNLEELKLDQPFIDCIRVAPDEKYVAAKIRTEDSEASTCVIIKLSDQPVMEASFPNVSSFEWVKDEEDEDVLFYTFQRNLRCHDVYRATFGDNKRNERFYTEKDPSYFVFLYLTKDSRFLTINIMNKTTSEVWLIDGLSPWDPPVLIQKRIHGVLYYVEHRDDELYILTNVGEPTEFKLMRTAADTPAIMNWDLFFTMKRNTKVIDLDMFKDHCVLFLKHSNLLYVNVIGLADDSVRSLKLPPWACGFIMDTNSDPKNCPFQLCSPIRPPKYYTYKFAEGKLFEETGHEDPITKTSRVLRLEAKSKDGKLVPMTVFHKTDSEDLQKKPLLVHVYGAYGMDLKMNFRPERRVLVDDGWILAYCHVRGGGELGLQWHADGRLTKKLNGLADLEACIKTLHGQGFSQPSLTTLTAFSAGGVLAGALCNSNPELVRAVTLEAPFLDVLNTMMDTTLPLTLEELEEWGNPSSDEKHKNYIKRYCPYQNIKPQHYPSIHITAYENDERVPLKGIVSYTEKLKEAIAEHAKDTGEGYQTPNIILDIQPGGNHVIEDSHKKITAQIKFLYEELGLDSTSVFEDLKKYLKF

Target: Prolyl endopeptidase-like (Homo sapiens) (UniProt Q4J6C6)
Test: human PREPL activity-probe blockers – biochemical, fluorescence polarization, primary screen (AID 2751);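 further: 0% = enzyme with DMSO and 100% = wells lacking enzyme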
Details: recombinant PREPL, fluorescence polarization activity-based probe; at 5.96 µM; active compounds read high

Structure (SMILES)	inhibition
CCC(=O)N(c1ccccc1)C1(COC)CCN(CCn2nnn(CC)c2=O)CC1	inactive: 14.4%
CCC(=O)N(c1ccccc1)C1(COC)CCN(CCc2cccs2)CC1	inactive: 1.84%
